The list shows a part of the results, in another mix than the full data. Potency and affinity values are given separately. Some structures show a salt or complex split into parts, the way the source records it. Activity calls are given as the source filed them.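 The calls were made as follows: active = inhibition over 29.93%, a cutoff 3 SD above the screen mean, later confirmed by dose response; inconclusive = inhibition over 29.93% but no dose response follow-up; inactive = inhibition at most 29.93% or unconfirmed.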

This assay is described as follows: inhibitors of PhoP regulon expression, primary screen, Salmonella Typhimurium, GFP reporter (AID 1863).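 Also: 0% = low Mg2+ inducing control and 100% = high Mg2+ repressing control.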 The following applies: S. Typhimurium PhoP-regulated promoter GFP reporter, 4 h; at 50 µM; active compounds read high.
In the case of `CP(=O)(Nc1ccccc1Br)Oc1ccccc1` (stereo unspecified), the inhibition (as a rule, the relative decrease from the control value, in per cent) is inactive: 8.5%.
Then `COc1ccccc1OP(C)(=O)Nc1ccccc1` (stereo unspecified), with inactive: 1.18%; and `CP(=S)(Nn1cnnc1)Oc1ccccc1` (stereo unspecified), with inactive: 2.5%.
Turning to `CP(=O)(Nc1ccccn1)Oc1ccc(Cl)cc1` (stereo unspecified), the inhibition is inactive: 3.46%.
For `CCOC(=O)c1ccc(NP(C)(=O)Oc2ccc(OC)cc2)cc1` (stereo unspecified) the value was inactive: -9.71%; for `CCOP(C)(=S)SCC(=O)NC(C)C(=O)O` (stereo unspecified), inactive: -3.04%; for `CP(=O)(NC(=O)Nc1ccccc1)Oc1ccccc1` (stereo unspecified), inactive: -4.57%.
`CCc1ccc(OP(C)(=O)N2CCN(c3ccc([N+](=O)[O-])cc3)CC2)cc1` (stereo unspecified): the inhibition is inactive: 1.41%.
With `Cc1cc(C)cc(OP(C)(=O)Nc2ccc(SC(F)(F)F)cc2)c1` (stereo unspecified), the inhibition is inactive: 12.3%.
Take `Cc1cccc(C)c1OP(C)(=O)Nc1ccc(SC(F)(F)F)cc1` (stereo unspecified): the inhibition is inactive: -7.64%.
On to `CP(=O)(Nc1ccc(SC(F)(F)F)cc1)Oc1ccc(Cl)cc1` (stereo unspecified), for which the inhibition was inactive: -5.54%.
`CP(=O)(Oc1ccccc1)OC(c1ccccc1)C(F)(F)F` (stereo unspecified): the inhibition is inactive: 5.96%.
Consider `CCN(CC)CCCOC(=O)C(O)(c1ccccc1)c1ccccc1`, for which the inhibition is inactive: -3.99%.
Consider `Cc1cc(C)cc(OP(C)(N)=O)c1` (stereo unspecified), for which the inhibition is inactive: 5.45%.
`COc1ccccc1OP(C)(=O)Nc1cc(Cl)ccc1C` (stereo unspecified): the inhibition was inactive: 4.3%.
Then `COc1ccc(OP(C)(=O)Nc2cccc(F)c2)cc1` (stereo unspecified), with inactive: -2.16%; and `COc1ccccc1OP(C)(=O)Nc1ccc(C)cc1` (stereo unspecified), with inactive: 5.21%.
For the compound `Cc1ccc(NP(C)(=O)Oc2ccccc2)c(C)c1` (stereo unspecified), the inhibition was inactive: 8.83%.
Then `CCOC(=O)c1ccc(NP(C)(=O)Oc2ccccc2)cc1` (stereo unspecified), with inactive: -4.48%; and `O=[N+]([O-])c1ccc2c(c1)C=Nc1ccccc1O2`, with inactive: 3.26%.
Regarding `CC(C)(C)c1ccc(OP(C)(=O)Nc2ccc(SC(F)(F)F)cc2)cc1` (stereo unspecified), the inhibition was inactive: 0.09%.
For `Cc1cccc(C)c1OP(C)(N)=O` (stereo unspecified) the value was inactive: 1.31%; for `O=[N+]([O-])c1cc([N+](=O)[O-])c(Nc2cccnc2)c([N+](=O)[O-])c1`, inactive: 0.42%; for `CC1=NCCc2c1[nH]c1ccccc21.O=[N+]([O-])c1cc([N+](=O)[O-])c(O)c([N+](=O)[O-])c1`, inactive: 35%.
Turning to `O=C(O)c1cccc(Nc2c([N+](=O)[O-])cc([N+](=O)[O-])cc2[N+](=O)[O-])c1`, the inhibition is inactive: -7.06%.
Take `Cc1ccc(C)c(NP(C)(=O)Oc2ccccc2)c1` (stereo unspecified): the inhibition is inactive: 3.33%.
Then `Cc1cc(C)cc(OP(C)(=O)Nc2ccccn2)c1` (stereo unspecified), with inactive: 7.72%; and `CP(=O)(Nc1cccc(Br)c1)Oc1ccccc1` (stereo unspecified), with inactive: 1.93%.
Then `CCOC(=O)c1ccc(NP(C)(=O)Oc2cc(C)cc(C)c2)cc1` (stereo unspecified), with inactive: -21.6%; and `Cc1cc(C)cc(OP(C)(=O)Nc2ccc(C)cc2C)c1` (stereo unspecified), with inactive: 12.7%; and `COc1ccccc1OP(C)(=O)Nc1cccc(Br)c1` (stereo unspecified), with inactive: 2%.
Then `Cc1nc2ccc3ccccc3c2s1.O=[N+]([O-])c1cc([N+](=O)[O-])c(O)c([N+](=O)[O-])c1`, with inactive: -2.86%; and `O=[N+]([O-])c1cc([N+](=O)[O-])c(-n2nnc3ccccc32)c([N+](=O)[O-])c1`, with inactive: 8.35%.
As to `CCCOc1ccc(NP(C)(=O)Oc2ccc(Cl)cc2)cc1` (stereo unspecified), the inhibition was inactive: -5.57%.
Then `CP(=O)(Nc1ccc(SC(F)(F)F)cc1)Oc1ccccc1` (stereo unspecified), with inactive: 3.31%; and `COc1ccccc1OP(C)(=O)Nc1c(C)cccc1C` (stereo unspecified), with inactive: -0.94%.
As for `CN1CCCCC1COC(=O)C1(O)c2ccccc2CCc2ccccc21` (stereo unspecified), the inhibition was inactive: -4.98%.
In the case of `CC1=C2N=C(C=C3N=C(C(C)=C4[N-][C@@](C)([C@@H]5N=C1[C@](C)(CCC(=O)NC[C@@H](C)OP(=O)([O-])O[C@H]1[C@@H](O)[C@@H](n6cnc7cc(C)c(C)cc76)O[C@@H]1CO)[C@H]5CC(N)=O)[C@@](C)(CC(N)=O)[C@@H]4CCC(N)=O)[C@@](C)(CC(N)=O)[C@@H]3CCC(N)=O)C(C)(C)[C@@H]2CCC(N)=O.[C-]#N.[Co+3]`, the inhibition is inactive: 9.73%.
With `O=[N+]([O-])c1cc([N+](=O)[O-])c(Nc2nnnn2CCO)c([N+](=O)[O-])c1`, the inhibition was inactive: -0.095%.
For `CCOC(=O)C(CC)C1=NC(C)(C)Cc2ccccc21.O=[N+]([O-])c1cc([N+](=O)[O-])c(O)c([N+](=O)[O-])c1` (stereo unspecified) the value was inactive: -1.21%; for `O=[N+]([O-])c1ccc(OP2(=O)COCCO2)cc1` (stereo unspecified), inactive: 2.25%.
As for `O=[N+]([O-])c1cc([N+](=O)[O-])c(NCC2CCS(=O)(=O)C2)c([N+](=O)[O-])c1` (stereo unspecified), the inhibition is inactive: 6.14%.
As for `Cc1cc(-c2cccc3ccccc23)c(C)cn1.O=[N+]([O-])c1cc([N+](=O)[O-])c(O)c([N+](=O)[O-])c1`, the inhibition was inactive: -0.69%.
For `CN(C)CCOC(=O)C(O)(c1ccccc1)C1CCCCC1` (stereo unspecified) the value was inactive: 6.68%; for `COc1ccc(NP(C)(=O)Oc2ccccc2OC)cc1` (stereo unspecified), inactive: 6.47%.
In the case of `COc1ccc(OP(C)(=O)Nc2cccc(Br)c2)cc1` (stereo unspecified), the inhibition is inactive: -9.93%.
For `Cc1ccccc1NP(C)(=O)Nc1ccccc1C` the value was inactive: 4.36%; for `CP(=O)(Nc1ccc2c(c1)OCCO2)Oc1ccccc1` (stereo unspecified), inactive: -2.79%.
Then `CCOP(C)(=S)SCC(=O)NC(C)(CC)C(=O)O` (stereo unspecified), with inactive: -7.82%.
`CP(=O)(Nc1ccc(SC(F)(F)F)cc1)Oc1ccc(F)cc1` (stereo unspecified): the inhibition was inactive: -8.9%.
Regarding `COc1ccc2c(c1O)-c1c(O)c(OC)cc3c1[C@H](C2)[N+](C)(C)CC3.O=[N+]([O-])c1cc([N+](=O)[O-])c([O-])c([N+](=O)[O-])c1[O-]`, the inhibition was inactive: -9.75%.
Consider `O=C(OC1CN2CCC1CC2)c1ccc([N+](=O)[O-])cc1` (stereo unspecified), for which the inhibition was inactive: -4.18%.
In the case of `O=C(OCCN1CCN(CCOCc2ccccc2)CC1)C(O)(c1ccccc1)c1ccccc1`, the inhibition is inactive: -0.5%.
Then `CP(=O)(Nc1ccccc1F)Oc1ccccc1` (stereo unspecified), with inactive: 17.8%; and `CC(C)c1ccc(OP(C)(=O)Nc2ccc(SC(F)(F)F)cc2)cc1` (stereo unspecified), with inactive: -33.3%.
Then `CP(=O)(Nc1ccccc1)Oc1ccc(F)cc1` (stereo unspecified), with inactive: 0.84%.
As for `CCCCCOc1ccc(NP(C)(=O)Oc2ccc(Cl)cc2Cl)cc1` (stereo unspecified), the inhibition was inactive: -6.68%.
Then `O=[N+]([O-])c1cc([N+](=O)[O-])c(OC2CCCCC2O)c([N+](=O)[O-])c1` (stereo unspecified), with inactive: 1.53%; and `CCN(CC)CCCOC(=O)C(O)(c1ccccc1)C1CCCCC1` (stereo unspecified), with inactive: 5.56%.
For `CCOC(=O)c1ccc(NP(C)(=O)Oc2ccc(F)cc2)cc1` (stereo unspecified) the value was inactive: 8.75%; for `COc1ccc(OP(C)(=O)Nc2ccc(SC(F)(F)F)cc2)cc1` (stereo unspecified), inactive: -11.1%; for `CP(=O)(Nc1ccc(Cl)cc1Cl)Oc1ccccc1` (stereo unspecified), inactive: 7.22%.
As to `CP(=O)(OCCOc1ccccc1)OCCOc1ccccc1`, the inhibition is inactive: 4.94%.
Then `Cc1nc2ccc3ccccc3c2o1.O=[N+]([O-])c1cc([N+](=O)[O-])c(O)c([N+](=O)[O-])c1`, with inactive: 6.37%; and `COc1ccccc1OP(C)(=O)Nc1ccc(C)c(C)c1` (stereo unspecified), with inactive: -3.08%; and `COc1ccc(OP(C)(=O)Nc2ccccc2Br)cc1` (stereo unspecified), with inactive: 1.83%.
For the compound `Cc1cc(C)cc(OP(C)(=O)Nc2cccc(C(F)(F)F)c2)c1` (stereo unspecified), the inhibition was inactive: -1.77%.
For the compound `CP(=O)(Nc1ccccn1)Oc1ccccc1` (stereo unspecified), the inhibition is inactive: 4.9%.
As to `COc1ccccc1OP(C)(=O)Nc1ccc(C)cc1C` (stereo unspecified), the inhibition was inactive: 1.8%.
Turning to `CCc1ccc(OP(C)(=O)O)cc1`, the inhibition is inactive: -7.62%.
`Cc1c(NP(C)(=O)Oc2ccc(C(C)C)cc2)c(=O)n(-c2ccccc2)n1C` (stereo unspecified): the inhibition was inactive: -3.02%.
Then `O=[N+]([O-])c1cc([N+](=O)[O-])c(Nc2ccccn2)c([N+](=O)[O-])c1`, with inactive: 2.94%.
On to `COc1ccc(OP(C)(=O)Nc2ccccn2)cc1` (stereo unspecified), for which the inhibition was inactive: -2.32%.
For `CN(C)CCOC(=O)C(O)(c1ccccc1)C1CCCC1` (stereo unspecified) the value was inactive: 3.96%.
For `COc1ccccc1OP(C)(=O)Nc1ccc(Br)cc1` (stereo unspecified) the value was inactive: -0.02%.
For `CN(C)C(=O)c1c([N+](=O)[O-])cc([N+](=O)[O-])cc1[N+](=O)[O-]` the value was inactive: -7.04%; for `COc1ccccc1OP(C)(=O)Nc1ccccc1Br` (stereo unspecified), inactive: -7.78%.
Consider `CC(C)(C)c1ccc(OP(C)(=O)O)cc1`, for which the inhibition was inactive: 0.11%.
Then `CP(=O)(Nc1ccc(Cl)cc1)Oc1ccc(F)cc1` (stereo unspecified), with inactive: -0.82%; and `O=C(OCCCN1CCCC1)C(O)(c1ccccc1)C1CCCCC1` (stereo unspecified), with inactive: -2.52%.
Then `CP(=O)(Oc1ccccc1)N1CCOC1=O` (stereo unspecified), with inactive: 14.6%.
Then `CCc1ccc(OP(C)(=O)Nc2cccnc2)cc1` (stereo unspecified), with inactive: -10.3%.
For the compound `CCN(CC)CC(O)COC(=O)C(O)(c1ccccc1)C1CCCCC1` (stereo unspecified), the inhibition was inactive: 7.09%.
Then `COc1ccc(OP(C)(=O)Nc2ccc(Br)cc2)cc1` (stereo unspecified), with inactive: 15.5%; and `CCOC(=O)c1ccc(NP(C)(=O)Oc2ccc(Cl)cc2)cc1` (stereo unspecified), with inactive: -0.05%.
On to `CP(=O)(OC12CC3CC(CC(C3)C1)C2)OC12CC3CC(CC(C3)C1)C2`, for which the inhibition is inactive: 5.1%.

The record behind these values is PubChem BioAssay AID1863 (Southern Research Specialized Biocontainment Screening …, 2009).
